According to US11197863B2, “Inhibitors of polo-like kinase 4 (PLK4) for treating pediatric embryonal tumors” (ANN AND ROBERT H. LURIE CHILDREN'S HOSPITAL OF CHICAGO, priority 2017, dated 2021):

Target: T1, AURKC (Homo sapiens, UniProt Q9UQB9)
T1 sequence (Q9UQB9 1-309): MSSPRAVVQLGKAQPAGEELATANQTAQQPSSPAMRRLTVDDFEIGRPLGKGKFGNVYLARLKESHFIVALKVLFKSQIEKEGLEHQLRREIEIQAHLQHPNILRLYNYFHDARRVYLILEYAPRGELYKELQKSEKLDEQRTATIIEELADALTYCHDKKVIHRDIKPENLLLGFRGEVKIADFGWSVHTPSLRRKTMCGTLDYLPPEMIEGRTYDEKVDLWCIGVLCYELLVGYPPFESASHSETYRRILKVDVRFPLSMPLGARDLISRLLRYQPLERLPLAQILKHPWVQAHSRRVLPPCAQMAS
Test: Kinase activity screening (SelectScreen Kinase Profiling)
Assay type: biochemical
Conditions: 10-point titration

Question: With `COc1ccc2c(c1)[C@]1(C[C@H]1c1ccc3c(/C=C/c4ccc(CN5C[C@@H](C)O[C@@H](C)C5)cc4)n[nH]c3c1)C(=O)N2` [CFI-400945] as the molecule, how does the IC50 read?
Answer: Its IC50 is 106 nM.
